Values of other authors as cited in patent US20250313640A1, “INHIBITION OF CSF-1 or CSF-1R FOR THE TREATMENT OF MINIMAL RESIDUAL DISEASE” (BOARD OF REGENTS, THE UNIVERSITY OF TEXAS SYSTEM, priority 2024, published 2025).

System: TGCT

In the case of “Emactuzumab: clinical stage humanized IgG1 CSF1R targeted antibody; heavy chain SEQ ID NO: 20, light chain SEQ ID NO: 21”, the “safety profile in patients” value is given as “favorable safety profile” and the “efficacy for TGCT” value (patients) is given as “encouraging efficacy”.
